PubChem BioAssay AID1903 (Southern Research Specialized Biocontainment Screening …, 2009)
The other results are listed elsewhere or left out. Results with a measured potency or affinity are listed apart. Some results for these compounds are left out of this collection, so the calls shown say nothing about other tests. Calls of active or inactive are those of the source. No rule for the calls is given here.

Protein sequences, listed by entry. Tags and fused reporters are not part of them.
UniProt P03070, whole entry: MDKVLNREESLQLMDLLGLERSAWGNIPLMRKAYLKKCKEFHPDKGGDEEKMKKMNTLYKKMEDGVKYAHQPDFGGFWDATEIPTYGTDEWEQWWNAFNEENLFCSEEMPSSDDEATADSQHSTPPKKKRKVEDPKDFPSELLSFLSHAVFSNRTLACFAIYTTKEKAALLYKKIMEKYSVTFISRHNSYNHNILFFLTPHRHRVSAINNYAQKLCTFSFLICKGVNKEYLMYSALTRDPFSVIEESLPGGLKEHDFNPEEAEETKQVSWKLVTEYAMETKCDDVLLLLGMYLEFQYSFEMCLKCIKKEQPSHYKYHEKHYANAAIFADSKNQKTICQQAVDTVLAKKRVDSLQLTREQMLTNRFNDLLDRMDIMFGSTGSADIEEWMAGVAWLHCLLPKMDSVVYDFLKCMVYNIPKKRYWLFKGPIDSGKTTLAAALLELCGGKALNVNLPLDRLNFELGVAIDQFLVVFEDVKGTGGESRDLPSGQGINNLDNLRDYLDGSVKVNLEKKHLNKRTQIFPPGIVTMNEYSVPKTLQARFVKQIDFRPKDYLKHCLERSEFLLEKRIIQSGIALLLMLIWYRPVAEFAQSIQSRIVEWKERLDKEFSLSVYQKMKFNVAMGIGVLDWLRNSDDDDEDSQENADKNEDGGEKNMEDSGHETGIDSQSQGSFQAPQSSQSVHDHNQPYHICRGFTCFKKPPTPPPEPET

target: Large T antigen (Simian virus 40) (UniProt P03070); assay: TAg ATPase/helicase activity blockers – biochemical (AID 1903); settings: SV40 large T antigen ATPase/helicase inhibition assay; at 20 µM; stronger effect = higher value

Compound | inhibition
COc1ccc(Br)c(C(=O)NCC2(N3CCCCC3)CCCCC2)c1 | inactive: 12%
CN(C)c1cccc(C(=O)NCC2(N(C)C)CCCCC2)c1 | inactive: 8.28%
CC(C)Oc1ccc(C(=O)NCC2(N(C)C)CCCCC2)cc1 | inactive: 0.37%
O=C(OC1CN2CCC1CC2)C(CO)(c1ccccc1)c1ccccc1 (centres undefined) | inactive: 1.24%
COc1ccc(Cl)cc1C(=O)NCC1(N(C)C)CCCCC1 | inactive: 17.5%
COc1cccc(C(=O)NCC2(N3CCCCC3)CCCCC2)c1 | inactive: 7.37%
O=C(NCC1(N2CCCCC2)CCCCC1)c1cccc(Cl)c1 | inactive: 5.94%
CN(C)C1(CNC(=O)c2ccc(Br)cc2)CCCCC1 | inactive: 11.4%
COc1cc(C(=O)NCC2(N(C)C)CCCCC2)c([N+](=O)[O-])cc1OC | inactive: -3.49%
O=C(NCC1(N2CCCCC2)CCCCC1)c1cc(F)c(F)cc1Cl | inactive: 6.02%
C=CCN1CCN(CCOC(=O)C(O)(c2ccccc2)c2ccccc2)CC1 | inactive: 24.3%
O=C(NCC1(N2CCCCC2)CCCCC1)c1cccc(Br)c1 | inactive: 6.84%
CCN1CCCC(OC(=O)C2(O)c3ccccc3C=Cc3ccccc32)C1 (centres undefined) | inactive: -1.29%
Cc1cc(C(=O)NCC2(N3CCCCC3)CCCCC2)ccc1[N+](=O)[O-] | inactive: -2.16%
COc1ccc(C(=O)NCC2(N(C)C)CCCCC2)cc1 | inactive: 1.77%
CN(C)c1ccc(C(=O)NCC2(N(C)C)CCCCC2)cc1 | inactive: 3.87%
CN(C)C1CCCC1OC(=O)C(O)(c1ccccc1)c1ccccc1 (centres undefined) | inactive: 24.5%
Cc1ccccc1C(=O)NCC1(N2CCCCC2)CCCCC1 | inactive: -0.14%
CC(C)N1C(=O)CC2(CCN(CCOC(=O)C(O)(c3ccccc3)c3ccccc3)CC2)C1=O | inactive: -0.195%
COc1cc(SC)ccc1C(=O)NCC1(N(C)C)CCCCC1 | inactive: 4.48%
CCN(CC)CC(C)C(C)OC(=O)C(O)(c1ccccc1)c1ccccc1 (centres undefined) | inactive: 24.2%
Cc1ccc(C(=O)NCC2(N3CCCCC3)CCCCC2)cc1 | inactive: 3.88%
O=C(NCC1(N2CCCCC2)CCCCC1)c1cc([N+](=O)[O-])ccc1Cl | inactive: 6.63%
CN1[C@@H]2CC[C@H]1CC(OC(=O)C(O)(c1ccccc1)c1ccccc1)C2 (some centres undefined) | inactive: 22.7%
